A short description of this data set: in vivo. The following applies: rat.

As usually defined, the half-life is the time needed for the level to fall by half in the phase considered. The low end stands for rapid decline, the high end for slow decline. Turning to `NCCCC[C@H](NC(=O)[C@H](CCCCN)NC(=O)[C@H](CCCCN)NC(=O)[C@H](CCCCN)NC(=O)[C@H](CCCCN)NC(=O)[C@H](CCCCN)NC(=O)[C@H](CCCCN)NC(=O)[C@H](CCCCN)NC(=O)[C@H](CCCCN)NC(=O)[C@H](CCCCN)NC(=O)[C@H](CCCCN)NC(=O)[C@H](CCCCN)NC(=O)[C@H](CCCCN)NC(=O)[C@H](CCCCN)NC(=O)[C@H](CCCCN)NC(=O)[C@H](CCCCN)NC(=O)[C@H](CCCCN)NC(=O)[C@H](CCCCN)NC(=O)[C@H](CCCCN)NC(=O)[C@H](CCCCN)NC(=O)[C@H](CCCCN)NC(=O)[C@H](CCCCN)NC(=O)[C@H](CCCCN)NC(=O)[C@H](CCCCN)NC(=O)[C@H](CCCCN)NC(=O)[C@H](CCCCN)NC(=O)[C@H](CCCCN)NC(=O)[C@H](CCCCN)NC(=O)[C@H](CCCCN)NC(=O)[C@H](CCCCN)NC(=O)[C@H](CCCCN)NC(=O)[C@H](CCCCN)NC(=O)[C@H](CCCCN)NC(=O)[C@H](CCCCN)NC(=O)[C@H](CCCCN)NC(=O)[C@H](CCCCN)NC(=O)[C@H](CCCCN)NC(=O)[C@H](CCCCN)NC(=O)[C@H](CCCCN)NC(=O)[C@H](CCCCN)NC(=O)[C@H](CCCCN)NC(=O)[C@H](CCCCN)NC(=O)[C@H](CCCCN)NC(=O)[C@H](CCCCN)NC(=O)[C@H](CCCCN)NC(=O)[C@H](CCCCN)NC(=O)[C@H](CCCCN)NC(=O)[C@H](CCCCN)NC(=O)[C@H](CCCCN)NC(=O)[C@@H](N)CCCCN)C(=O)O`, the half-life was 30 min.

The values are drawn from patent US12274731B1, “Polybasic antimalarial agents and methods of use thereof” (priority 2018, dated 2025).
